Ab-14 light chain CDR variants: yeast mating affinities

Source: Li et al. 2023 (doi:10.1038/s41467-023-39022-2), MIT Lincoln Laboratory and A-Alpha Bio; data file from the FLAb repository.

All variants were tested on one target, the spike HR2 peptide PDVDLGDISGINAS (SARS-CoV-2).

The variants keep the heavy chain, the linker and the frameworks of Ab-14 (scFv order VH, the linker GGGGSGGGGSGGGGS, VL).
VH: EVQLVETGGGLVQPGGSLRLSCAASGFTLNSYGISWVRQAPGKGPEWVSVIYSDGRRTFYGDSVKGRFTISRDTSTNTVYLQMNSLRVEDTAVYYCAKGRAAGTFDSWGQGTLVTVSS
VL: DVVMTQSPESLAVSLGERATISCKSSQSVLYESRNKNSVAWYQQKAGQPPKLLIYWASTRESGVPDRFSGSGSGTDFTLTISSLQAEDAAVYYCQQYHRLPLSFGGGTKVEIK

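Phage display of a naive human antibody library on the peptide gave the parent. Designed CDR sequences, proposed from the first random library and measured here. Their group label is 14L_GP_Gen (GP: Gaussian process model; Gen: genetic algorithm; a sequence that several methods proposed may carry one label only). The assay is AlphaSeq: two haploid yeast populations carry antibody and antigen on their surface. After mating in shaken culture at 30 °C for 16 h, diploids were selected and their barcode pairs sequenced. A regression on co-assayed BCL2-family reference pairs converts the normalised counts of each replicate to an apparent Kd. There are six technical replicates.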

Each variant is given by its three light chain CDRs, as the data file delimits them; those of the parent are KSSQSVLYESRNKNSVA, WASTRES, QQYHRLPLS. Numbers give log10(Kd / nM), so 0 is 1 nM and 3 is 1 µM. Smaller is tighter. Averages over replicates are reported, and they cover detected replicates only.

CDR-L1 | CDR-L2 | CDR-L3 | log10 Kd, replicates | log10 Kd (nM), mean | signal with controls
KLSFSELYESRNKNSVA | EASTRES | QQYHRLPLS | -0.32 -0.41 -0.57 -0.73 -0.56 -0.44 | -0.50 | 1/18 (4.21)
KLQQSDLYESRNKNSVA | NASQRLS | QQYHRLPLS | 0.19 0.08 0.02 -0.16 -0.02 0.21 | 0.05 | 0/18
KLSQSFLYESRNKNSVA | DASTRES | QQYHRLPLS | -0.06 -0.14 -0.29 -0.22 -0.16 0.02 | -0.14 | 2/18 (2.60)
KLSQSVLYESRNWNSVA | NASTRES | QQYHRLPLS | -0.12 -0.29 -0.23 -0.42 -0.29 -0.14 | -0.25 | 0/18
KLSQSHLYESRNKNSVA | GASTRLS | QQYHRLPLS | 0.04 -0.06 -0.16 -0.16 0.18 -0.02 | -0.03 | 0/18
KLSQSNLYESRNKNAVA | NASTRES | QQYHRLPLS | 1.19 1.84 1.11 1.12 1.29 0.88 | 1.24 | 0/18
KLEQSTPYESRNKNSVA | NASTRES | QQYHRLPLS | 0.72 0.68 0.33 0.36 0.49 0.54 | 0.52 | 0/18
KVQQSMLYESRNKNSVA | NASTRMS | QQYHRLPLS | -0.01 -0.05 -0.08 -0.25 -0.20 0.02 | -0.10 | 0/18
KVSQSGLYESRNKNSVA | DASTRES | QQYHRLPLS | 0.74 0.57 0.53 0.49 1.04 0.74 | 0.69 | 1/18 (4.37)
KVSQSVLYESRNKNSVA | NASTREE | QQYHRLPLS | -0.23 -0.34 -0.43 -0.39 -0.45 -0.19 | -0.34 | 3/18 (3.33)
KLSQSVLYEQRNKNSVA | GASTRES | QQYHRLPLS | -0.19 -0.29 -0.43 -0.45 -0.48 -0.35 | -0.37 | 3/18 (2.81)
KLSQSELMESRNKNSVA | EASTRES | QQYHRLPLS | 0.78 0.50 0.69 0.60 0.39 0.91 | 0.65 | 1/18 (2.73)
KLSQSVLYEQRNKNSVA | EASTRES | QDYHRLPLS | 0.32 0.13 0.26 0.48 0.54 0.50 | 0.37 | 0/18
KVSQSVLYESRVKNSVA | EASTRES | QQYHRLPLS | 0.04 -0.09 -0.24 0.05 -0.19 0.25 | -0.03 | 2/18 (2.57)
KLSQSVPYESRNKNSVA | NASTREW | QQYHRLPLS | 0.11 0.01 -0.10 -0.12 -0.18 0.02 | -0.04 | 2/18 (2.51)
KLSQSVLYESRNKNNVA | DASQRES | QQYHRLPLS | -0.51 -0.51 -0.68 -0.69 -0.61 -0.45 | -0.57 | 0/18
KQSQSVDYESRNKNSVA | DASTRES | QQYHRLPLS | -0.06 -0.36 -0.47 -0.46 -0.38 0.03 | -0.28 | 3/18 (2.86)
KLSQSWLYESRMKNSVA | NASTRES | QQYHRLPLS | 0.77 1.00 0.41 0.69 0.51 1.20 | 0.76 | 0/18
KLEQSVLYESRNKNSVA | NGSTRES | QQYHRLPLS | 0.06 -0.06 -0.15 0.02 -0.15 0.08 | -0.03 | 2/18 (3.23)
KLSQSVLYEERMKNSVA | NASQRES | QQYHRLPLS | 0.23 0.34 0.17 0.11 0.07 0.32 | 0.21 | 2/18 (2.88)
KLSQSVLMESRNKNSVA | HASTRLS | QQYHRLPLS | 0.30 -0.02 0.00 -0.06 0.07 0.44 | 0.12 | 0/18
KFSQSQLYESRNKNSVA | NASYRES | QQYHRLPLS | 0.28 -0.15 -0.20 -0.14 -0.16 0.03 | -0.06 | 2/18 (3.49)
KVSQSVPYEQRNKNSVA | NASTRES | QQYHRLPLS | -0.08 -0.28 -0.41 -0.45 -0.44 -0.12 | -0.30 | 0/18
KLSNSELYESRNKNSVA | EASTRES | QQYHRLPLS | 0.10 0.39 0.33 0.53 0.00 0.17 | 0.25 | 3/18 (3.04)
KLSQSVLYESRNGNSVA | NASTREV | QQYHRLPLS | 0.00 -0.14 -0.49 -0.31 -0.37 -0.02 | -0.22 | 0/18
KLPQSQLYESRNKNSVA | HASTRLS | QQYHRLPLS | 0.48 0.23 0.26 0.16 0.52 0.18 | 0.30 | 1/18 (1.62)
KLLQSVLYESRNKNSVA | NASTRES | QQYHRLPLS | 1.00 0.68 0.39 0.40 0.10 0.63 | 0.53 | 0/18
KLSQSPLYESRNKNSVA | EASTRES | QQYHRLPLS | -0.03 -0.14 -0.40 -0.40 -0.33 -0.06 | -0.23 | 1/18 (3.54)
KVSQSVWYESRNKNSVA | NASTRES | QQYHRLPLS | -0.06 -0.09 -0.23 -0.17 -0.17 -0.03 | -0.13 | 0/18
KLSQSWLYESRNKNSVA | NASTRFS | QQYHRLPLS | -0.08 -0.07 0.16 -0.45 -0.17 -0.23 | -0.14 | 0/18
KLQQSQLYESRMKNSVA | NASTRES | QQYHRLPLS | -0.12 0.00 -0.14 0.10 -0.20 -0.20 | -0.09 | 0/18
KVEQSTLYESRNKNSVA | NASTRES | QQYHRLPLS | -0.23 -0.44 -0.36 -0.43 -0.44 -0.24 | -0.36 | 1/18 (1.84)
KLPQSQLYESRNKNSVA | NASQRES | QQYHRLPLS | 0.01 -0.03 0.00 -0.11 -0.04 0.05 | -0.02 | 2/18 (2.46)
KLEQSTLYESRNKNSVA | NASTRLS | QQYHRLPLS | -0.02 -0.51 -0.42 -0.45 -0.36 -0.25 | -0.33 | 1/18 (1.45)
KSSQSVDYESRNKNSVA | NASTRES | QQYHRLPLS | 0.36 0.33 0.21 0.36 0.29 0.33 | 0.31 | 1/18 (2.56)
KVSQSHLYESRNKNAVA | EASQRES | QQYHRLPLS | -0.57 -0.57 -0.69 -0.80 -0.63 -0.55 | -0.64 | 0/18
KFSQSVLYESRNKNSVA | NASTREQ | QQYHRLPLS | 0.39 0.23 -0.01 0.03 0.22 0.30 | 0.19 | 3/18 (3.78)
KLSQSELYESRNKNSVA | NASTRVS | QQYHRLPLS | 0.49 0.33 0.03 0.13 0.06 0.00 | 0.17 | 1/18 (2.56)
HLSQSVLMESRNKNSVA | NASTRES | QQYHRLPLS | -0.26 -0.28 -0.25 -0.40 -0.34 -0.25 | -0.30 | 2/18 (2.30)
KVPQSWLYESRNKNSVA | NASQRES | QQYHRLPLS | -0.09 0.09 -0.09 -0.22 -0.11 -0.03 | -0.08 | 1/18 (2.34)
KLSQSDLYESRNKNSVA | NASTRCS | QQYHRLPLS | -0.17 -0.40 -0.29 -0.43 -0.36 -0.23 | -0.31 | 2/18 (2.78)
KLSMSYLYESRNKNSVA | EASTRES | QQYHRLPLS | 0.32 0.36 0.21 0.34 0.23 0.46 | 0.32 | 1/18 (2.72)
KLEQSVLYESRNKNNVA | GASTRES | QQYHRLPLS | -0.11 -0.54 -0.69 -0.56 -0.64 -0.42 | -0.49 | 0/18
KISQSYLYESRNKNSVA | NASTRLS | QQYHRLPLS | -0.06 -0.13 -0.22 -0.34 -0.17 -0.03 | -0.16 | 0/18
KFSQSQLYEDRNKNSVA | NASQRES | QQYHRLPLS | -0.34 -0.64 -0.72 -0.71 -0.54 -0.44 | -0.56 | 2/18 (3.00)

3 of these entries, quoted again:

{"CDR-L1": "KLSQSDLYESRNKNSVA", "CDR-L2": "NASTRCS", "CDR-L3": "QQYHRLPLS", "log10 Kd, replicates": "-0.17 -0.40 -0.29 -0.43 -0.36 -0.23", "log10 Kd (nM), mean": "-0.31", "signal with controls": "2/18 (2.78)"}
{"CDR-L1": "KLSQSVLYEQRNKNSVA", "CDR-L2": "EASTRES", "CDR-L3": "QDYHRLPLS", "log10 Kd, replicates": "0.32 0.13 0.26 0.48 0.54 0.50", "log10 Kd (nM), mean": "0.37", "signal with controls": "0/18"}
{"CDR-L1": "KSSQSVDYESRNKNSVA", "CDR-L2": "NASTRES", "CDR-L3": "QQYHRLPLS", "log10 Kd, replicates": "0.36 0.33 0.21 0.36 0.29 0.33", "log10 Kd (nM), mean": "0.31", "signal with controls": "1/18 (2.56)"}

Three control strains display no target. For all light chain designs, 4% of the pairings with them gave a signal, with a median of 2.64 and one signal in twenty below 1.59, so weak values seen in few replicates may be background. Also given: how often the same scFv was detected with the empty control strains, with their mean in brackets. The range of this assay differs from that of the first round, and the authors advise against merging the two. The authors' rule: three or more of the six replicates give a measured affinity, fewer mean a poor binder. The parent sequence was in this pool as ten entries: three were never detected, three once, and four in most replicates, with averages from 0.34 to 2.37.